Binding of CDR-mutated scFvs to a peptide of the spike HR2 region

Source: Li et al. 2023 (doi:10.1038/s41467-023-39022-2), MIT Lincoln Laboratory and A-Alpha Bio; data file from the FLAb repository.

The target is the same throughout: PDVDLGDISGINAS, from the HR2 region of SARS-CoV-2 spike.

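The parent was found by panning a naive human phage display library on the peptide. Designed CDR sequences, proposed from the first random library and measured here. Group labels follow the data file (Ctrl: baseline library sampled from a position-specific scoring matrix, with some repeated check sequences; Rand: our label for a block that the file lists under HC and that is probably the random mutants of the ten best first-round binders; En: ensemble of fine-tuned language models; GP: Gaussian process model; GPLM: also part of the Gaussian process libraries; HC: hill climbing; Gen: genetic algorithm; Gibbs: Gibbs sampling; a sequence that several methods proposed may carry one label only). AlphaSeq pools MATa yeast showing the antibodies with MATalpha yeast showing the peptide. Mating (16 h, 30 °C) was followed by selection of diploids and sequencing of their barcodes. Each replicate has its own calibration line, from reference interactions of the BCL2 family. Mating was done six times.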

Parent scFv Ab-14: VH joined to VL by three GGGGS repeats. Changes lie in the heavy chain CDRs alone.
VH: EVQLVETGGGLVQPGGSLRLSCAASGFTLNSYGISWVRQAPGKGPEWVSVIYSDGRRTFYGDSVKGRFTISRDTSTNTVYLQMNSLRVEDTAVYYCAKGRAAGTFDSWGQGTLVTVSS
VL: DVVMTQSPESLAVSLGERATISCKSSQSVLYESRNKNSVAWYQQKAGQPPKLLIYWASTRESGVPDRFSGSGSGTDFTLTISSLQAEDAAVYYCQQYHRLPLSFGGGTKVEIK

The parent's heavy chain CDRs are GFTLNSYGIS, VIYSDGRRTFYGDSVK, GRAAGTFDS; each variant's own CDRs replace them letter for letter.
Numbers give log10(Kd / nM), so 0 is 1 nM and 3 is 1 µM. Smaller is tighter.
Replicates are averaged; those with no signal do not enter the mean.
A pair that was not seen in any replicate is written "not detected"; this usually means weak binding, but a binder can also be missed.
Three control strains display no target. For all heavy chain designs, 1% of the pairings with them gave a signal, with a median of 2.08 and one signal in twenty below 0.84, so weak values seen in few replicates may be background.
The authors averaged sequences with at least three values out of six and counted those with two or fewer as poor binders.
Values of this round are not directly comparable with the first-round values of the same sequences.

| # | log10 Kd (nM), mean | detected | CDR-H1 | CDR-H2 | CDR-H3 | group |
|---|---|---|---|---|---|---|
| 1 | 0.25 | 6 of 6 | GFDLNSYGIS | VIYSDGKRTFYSDSVK | GRQAGTFDS | GP_Gen |
| 2 | -0.84 | 6 of 6 | GFDLDEYGIS | VIYADGMRTAYADKVK | GQNAGTFDV | En_Gen |
| 3 | 1.57 | 4 of 6 | GFSLNSYGIS | VIYSDGRRTFYGDPVK | GKQAGTFDS | GP_Gibbs |
| 4 | 0.14 | 6 of 6 | GFDLNSYGIS | VIYADGRRTFYGDFVK | GRAAGTFDS | Ctrl |
| 5 | not detected | 0 of 6 | GFDLMEYGIS | VIYADGMRQAYANKFK | GGITDSGLI | En_Gibbs |
| 6 | 0.57 | 6 of 6 | GFDLNEYGIS | VIYADGMRTAYADSVK | GEAAGSFDQ | En_HC |
| 7 | 0.31 | 6 of 6 | GFELNSYGIS | VIYSDGRRTFYGDSVK | GITAGTFDS | GP_Gen |
| 8 | 2.20 | 3 of 6 | GFTLDSYGIS | VIYSDGRRTFYGDSVK | GRAAGTFDQ | GPLM_HC |
| 9 | 1.66 | 5 of 6 | MFDLNSYGIS | VIYSDGRRTFYGDSVK | GKNAGTFDS | GP_Gibbs |
| 10 | 0.94 | 5 of 6 | GFTLNSYGIS | VIYSDGRRTFYSDSVK | GRAGGTFDT | GPLM_HC |
| 11 | 0.60 | 1 of 6 | GFQLNSYGIS | VIYSDGRRTFYSDSVK | RRAAGTFVS | Ctrl |
| 12 | not detected | 0 of 6 | GFTMNSYGIS | VIYSDGRRTFYTDSVK | GRAAGGFDD | Ctrl |
| 13 | not detected | 0 of 6 | GFTLNSYGIS | VIYSDGRRTFYGDSVK | DRPAGTFDS | Ctrl |
| 14 | -0.21 | 6 of 6 | GFDLNEYGIS | VIYADGRRTVYSDSVK | GEVAGTFDV | En_HC |
| 15 | 1.31 | 6 of 6 | GFYLNSYGIS | VIYSDGRRTFYGDSVK | GQTAGTFDS | GPLM_Gen |
| 16 | not detected | 0 of 6 | GNTLDEYGIS | VIYADGMRKAYINKFK | GMVTGTFDQ | En_Gibbs |
| 17 | 0.38 | 3 of 6 | GFTLNSYGIS | VIYSDGRRTFYDDSVK | GRAAGTFDV | Ctrl |
| 18 | -0.49 | 6 of 6 | GFDLNEYGIS | VIYADGKRTAYSDSVK | GEVAGTFDM | En_Gen |
| 19 | -0.52 | 6 of 6 | GFDLDEYGIS | VIYADGRRTFYQDSVK | GQTAGTFDQ | En_HC |
| 20 | 1.90 | 5 of 6 | GFTLNSYGVS | VIYSDGRRTFYIDSVK | GEAAGTFDS | Ctrl |
| 21 | -0.46 | 6 of 6 | GFDLNEYGIS | VIYADGRRTFYTDSVK | GEVAGTFDM | En_HC |
| 22 | -0.12 | 6 of 6 | GFDLNEYGIS | VIYADGMRTFYADNVK | GNQAGTFDV | En_Gen |
| 23 | 2.20 | 1 of 6 | GFTLNQYDIS | VIYSDGRRTFYDHSVK | GQLAGTFDS | Rand |
| 24 | not detected | 0 of 6 | KFDLEAYGIS | VIYADGVRTGYVNKVK | GDTGGMFDM | En_Gibbs |
| 25 | 2.12 | 1 of 6 | GFTLNSYGIS | VIYSDGRRTFYSDSVK | GRAVGTFDS | Rand |
| 26 | -0.34 | 6 of 6 | GFDLNEYGIS | VIYADGMRTAYADSVK | GTNAGTFDV | En_Gen |
| 27 | -0.07 | 6 of 6 | GFDINEYGIS | VIYADGKRTAYADSVK | GENAGTFDV | En_HC |
| 28 | not detected | 0 of 6 | GFDLQEYGIS | VIYADGARYAYTNSVK | GTQAGSLIV | En_Gibbs |
| 29 | not detected | 0 of 6 | GFPLDSYGIS | VIYSDGRRTFYADSVK | GRAAETFKS | Ctrl |
| 30 | -0.28 | 6 of 6 | GFDLDEYGIS | VIYADGMRTAYADDVK | GNTAGTFDL | En_Gen |
| 31 | -0.18 | 6 of 6 | GFDLNEYGIS | VIYADGKRTAYADDVK | GNVAGTFDM | En_Gen |
| 32 | not detected | 0 of 6 | GFVLQEYGIS | VIYADGMRTAYAEDFK | GFTGGNLHI | En_Gibbs |
| 33 | -0.18 | 6 of 6 | GFDLNSYGIS | VIYSDGRRTFYADSVK | GKEAGTFDA | GP_Gibbs |
| 34 | 0.49 | 6 of 6 | GFSLNSYGIS | VIYSDGRRTFYGDDVK | GQAAGTFDS | GPLM_Gen |
| 35 | 0.23 | 6 of 6 | GFELNSYGIS | VIYADGRRTFYGDSVK | GYAAGTFDS | GPLM_Gen |
| 36 | -0.12 | 6 of 6 | GFDLNEYGIS | VIYADGVRTFYADSVK | GESAGTFDQ | En_HC |
| 37 | 0.61 | 6 of 6 | GFTLNSYGIS | VIYSDGRRTFYSDSVK | GTAAGTFDS | GPLM_Gen |
| 38 | 0.17 | 3 of 6 | GFTLDEYGIS | VIYSDGRRTFYGDAVK | GRAAGTFDS | Ctrl |
| 39 | 1.15 | 2 of 6 | GFTLNDYGIS | VIYSDGRRTFYIDSVK | GRAAGTFDA | GP_HC |
| 40 | not detected | 0 of 6 | GFTLNSYGIS | VIYSDGRRTFYGDSVK | GRAAGTYDA | Ctrl |
| 41 | not detected | 0 of 6 | GFDLNDYGIS | VIYSDGRRTFYSDSVK | GRLTFTFDQ | Ctrl |
| 42 | not detected | 0 of 6 | GFTVNSYGIS | VIYSDGRRTFYGDKVV | GQAAGTFDS | Ctrl |
| 43 | not detected | 0 of 6 | GFTLNEYGIS | VIYSDGRKTFYGDSVK | WRAAGTFDS | Ctrl |
| 44 | not detected | 0 of 6 | GFTLNEYGIE | VIYSDGRRTFYGDSVK | HRAAVTFDQ | Rand |
| 45 | not detected | 0 of 6 | GFTLNSYGIS | VIYSDGRRTFYSDSVK | GQEAGTFFS | GP_HC |
| 46 | 2.17 | 1 of 6 | GFYLNSYGIS | VIYSDGRRTFYDDSVK | GQIAGTFDS | GP_HC |
| 47 | not detected | 0 of 6 | GFSLNSYGIS | VIYSDGRRTFYGDSVK | GKSAGTFDS | GPLM_Gen |
| 48 | -0.11 | 6 of 6 | GFSLNDYGIS | VIYSDGRRTFYGDSVK | GRTAGTFDN | GPLM_Gen |
| 49 | -0.75 | 6 of 6 | GFDLNEYGIS | VIYADGSRTAYADNVK | GNVAGTFDV | En_Gen |
| 50 | 1.15 | 1 of 6 | GFTLNSYGIS | VIYSDGRRTFYGDSVK | GRAKGTTDA | Ctrl |

For reference, 7 entries of the list once more:

CDR-H1,CDR-H2,CDR-H3,group,"log10 Kd (nM), mean",detected
GFTLNSYGIS,VIYSDGRRTFYSDSVK,GRAGGTFDT,GPLM_HC,0.94,5 of 6
GFTLNEYGIS,VIYSDGRKTFYGDSVK,WRAAGTFDS,Ctrl,not detected,0 of 6
GFTLDEYGIS,VIYSDGRRTFYGDAVK,GRAAGTFDS,Ctrl,0.17,3 of 6
GFTLDSYGIS,VIYSDGRRTFYGDSVK,GRAAGTFDQ,GPLM_HC,2.20,3 of 6
GFTLNSYGIS,VIYSDGRRTFYGDSVK,GRAAGTYDA,Ctrl,not detected,0 of 6
GFDLNEYGIS,VIYADGRRTVYSDSVK,GEVAGTFDV,En_HC,-0.21,6 of 6
GFTLNEYGIE,VIYSDGRRTFYGDSVK,HRAAVTFDQ,Rand,not detected,0 of 6